Measurements taken from patent EP2221053A1, “Pharmaceutical composition comprising protein methyltransferase I inhibitors and its use for treating tumour diseases” (Albert-Ludwigs-Universität Freiburg, priority 2009, dated 2010).
Like-named read-outs stand apart in the source and are kept apart here.

The chains behind the UniProt entries cited, without tags or fusion partners. Residues count along the entry.
UniProt Q99873, whole entry: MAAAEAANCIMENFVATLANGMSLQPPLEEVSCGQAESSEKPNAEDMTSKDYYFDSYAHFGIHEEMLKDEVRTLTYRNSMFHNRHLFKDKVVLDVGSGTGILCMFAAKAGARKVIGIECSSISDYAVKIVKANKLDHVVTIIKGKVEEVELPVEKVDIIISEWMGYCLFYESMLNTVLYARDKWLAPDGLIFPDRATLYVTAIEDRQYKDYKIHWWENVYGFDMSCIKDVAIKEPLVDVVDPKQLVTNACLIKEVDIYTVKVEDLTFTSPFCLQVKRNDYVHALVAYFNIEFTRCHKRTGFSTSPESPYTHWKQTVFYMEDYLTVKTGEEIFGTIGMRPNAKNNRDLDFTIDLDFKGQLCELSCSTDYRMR
UniProt Q5VLE3, 1-345: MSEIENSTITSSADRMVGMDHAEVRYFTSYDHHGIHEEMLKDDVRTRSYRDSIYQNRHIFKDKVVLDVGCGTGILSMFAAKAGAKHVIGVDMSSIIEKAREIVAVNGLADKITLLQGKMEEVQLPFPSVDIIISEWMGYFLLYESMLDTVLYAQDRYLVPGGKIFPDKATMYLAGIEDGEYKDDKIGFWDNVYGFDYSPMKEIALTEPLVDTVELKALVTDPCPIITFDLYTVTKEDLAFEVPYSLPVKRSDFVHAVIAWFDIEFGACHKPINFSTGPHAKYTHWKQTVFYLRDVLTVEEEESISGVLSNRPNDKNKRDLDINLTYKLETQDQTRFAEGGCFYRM
UniProt Q8WTS6, whole entry: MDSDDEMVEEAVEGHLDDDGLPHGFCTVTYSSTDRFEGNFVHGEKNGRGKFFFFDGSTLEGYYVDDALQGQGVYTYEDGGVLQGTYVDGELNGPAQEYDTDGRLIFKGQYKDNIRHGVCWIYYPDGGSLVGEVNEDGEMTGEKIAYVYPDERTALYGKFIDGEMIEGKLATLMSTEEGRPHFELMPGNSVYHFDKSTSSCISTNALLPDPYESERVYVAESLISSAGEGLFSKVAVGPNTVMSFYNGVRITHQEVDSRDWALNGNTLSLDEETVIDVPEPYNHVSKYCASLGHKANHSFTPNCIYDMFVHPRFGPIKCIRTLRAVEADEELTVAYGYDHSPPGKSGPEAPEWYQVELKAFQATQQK

What was measured:
[1] = target: PRMT1 (Homo sapiens, UniProt Q99873); test: In vitro enzyme inhibition assay, immobilised oligopeptide substrate, antibody/Europium time-resolved fluorescence detection; type: biochemical; details: read-out: Hemmung PRMT1 (IC50 + SD), IC50 with SD
[2] = test system: Estrogen-Rezeptor α (ER α); test: Transient transfection luciferase reporter assay, estrogen receptor α mediated gene activation in HEK293 cells; type: cell-based; details: HEK293-Zellen; for cytotoxischer Effekt: estrogen receptor reporter assay; for inhibitorisches Potential bei der estrogenrezeptorvermittelten Aktivierung: in words
[3] = test system: Lysin-Acetylierung; test: Cellular lysine acetylation, ELISA-like assay with pan-anti-acetyllysine antibody; type: cell-based; details: for cytotoxischer Effekt: acetylation assay, tested form: HI; for Effekt auf die Acetylierung an Lysinen: in words
[4] = target: RmtA (Emericella nidulans, UniProt Q5VLE3)
[5] = test system: Arg3 im Histon H4; test: Cellular hypomethylation, ELISA-like assay with anti-dimethyl-histone H4(Arg3) antibody; type: cell-based; details: HepG2-Zellen; for cytotoxischer Effekt: methylation assay, tested form: HI; for Reduktion der Methylierung an Arg3 Histon H4: 25 µM
[6] = test system: Androgenrezeptor (AR); test: Transient transfection luciferase reporter assay, androgen receptor mediated gene activation in LnCap cells; type: cell-based; details: LnCap-Zellen; for cytotoxischer Effekt: androgen receptor reporter assay; for Reduzierung der androgenvermittelten Rezeptoraktivierung, verglichen mit den übrigen Substanzen: highest concentration, relative to the other substances; for antiandrogene Potenz: in words
[7] = target: SET7/9 (Homo sapiens, UniProt Q8WTS6); test: In vitro selectivity test against lysine methyltransferase; details: in-vitro test system, in words

| SMILES | IC50 ([1]; tested form: HI) [µM] | cytotoxischer Effekt ([2]; tested form: HI) | cytotoxischer Effekt [3] | Hemmung RmtA (%Inh. bei 10 µM) ([4]; tested form: HI) | cytotoxischer Effekt [5] | cytotoxischer Effekt ([6]; tested form: HI) | Reduzierung der androgenvermittelten Rezeptoraktivierung, verglichen mit den übrigen Substanzen ([6]; tested form: HI) | antiandrogene Potenz ([6]; tested form: HI) | cytotoxischer Effekt [2] | inhibitorisches Potential bei der estrogenrezeptorvermittelten Aktivierung [2] | Effekt auf die Acetylierung an Lysinen [3] | Hemmung RmtA (%Inh. bei 10 µM) [4] | Reduktion der Methylierung an Arg3 Histon H4 [5] [%] | Reduzierung der androgenvermittelten Rezeptoraktivierung, verglichen mit den übrigen Substanzen [6] | antiandrogene Potenz [6] | IC50 [1] [µM] | Reduktion der Acetylierung an Lysinen in Core-1-Histonen ([3]; 25 µM) [%] | inhibitorisches Potential gegenüber SET7/9 [7] |
| --- | --- | --- | --- | --- | --- | --- | --- | --- | --- | --- | --- | --- | --- | --- | --- | --- | --- | --- |
| CNCCCCCc1nc(-c2ccc(Cl)cc2)nc2cc(-c3ccccc3)nn12 | 10.4 | deutlichen cytotoxischen Effekt | stark cytotoxischen Effekt | 43,64% | stark cytotoxischen Effekt | deutlichen cytotoxischen Effekt | ≥ 2 -fach | Besonders hohe antiandrogene Potenz |  |  |  |  |  |  |  |  |  |  |
| CCNCCCCc1nc(-c2ccc(Cl)cc2)nc2c(-c3ccccc3)cnn12 | 4.18 | deutlichen cytotoxischen Effekt | stark cytotoxischen Effekt | 83,4% | stark cytotoxischen Effekt | deutlichen cytotoxischen Effekt | ≥ 2 -fach | Besonders hohe antiandrogene Potenz |  |  |  |  |  |  |  |  |  |  |
| NCCCCCOc1cc(-c2cccnc2)nc(-c2cccnc2)c1 |  |  |  |  |  |  |  |  | ohne jedoch einen cytotoxischen Effekt | das größte inhibitorische Potential | keinen Effekt | 53,7% | > 50 | ≥ 2 -fach | Besonders hohe antiandrogene Potenz |  |  |  |
| NCCCCCSc1cc(-c2ccc(Cl)cc2)nc2c(-c3ccccc3)cnn12 |  |  |  |  |  |  |  |  | ohne jedoch einen cytotoxischen Effekt | das größte inhibitorische Potential | indirekte Beeinflussung des Acetylierungslevels | 22,8% | > 50 | ≥ 2 -fach | Besonders hohe antiandrogene Potenz | 9.32 | > 50 | inhibitorisches Potential gegenüber SET7/9 |
